The target of the assay is T1, recombinant human HDAC8 (Homo sapiens, UniProt Q9BY41).
T1 construct: purchased BPS Biosciences
T1 sequence (Q9BY41 1-377): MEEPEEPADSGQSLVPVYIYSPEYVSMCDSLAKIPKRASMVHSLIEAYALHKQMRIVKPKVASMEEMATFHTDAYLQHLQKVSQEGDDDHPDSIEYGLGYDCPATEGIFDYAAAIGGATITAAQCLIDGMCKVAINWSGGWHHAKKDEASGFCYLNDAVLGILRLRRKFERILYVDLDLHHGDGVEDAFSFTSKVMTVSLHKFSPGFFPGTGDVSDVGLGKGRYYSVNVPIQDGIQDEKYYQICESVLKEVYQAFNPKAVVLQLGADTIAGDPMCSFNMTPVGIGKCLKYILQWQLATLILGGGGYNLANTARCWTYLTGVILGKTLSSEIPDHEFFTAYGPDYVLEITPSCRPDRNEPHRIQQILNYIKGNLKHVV
The assay can be described thus: recombinant human HDAC8 enzymatic assay. It is filed as biochemical. The following applies: 10-dose IC50 mode in duplicate, three-fold serial dilution. The protocol:
The assays were carried out by Shanghai ChemPartner Co., Ltd (Shanghai, China), according to our previous method. Briefly, different concentrations of compounds were incubated with recombinant human HDAC1, HDAC2, HDAC3, HDAC6 and HDAC8 (BPS Biosciences, San Diego, CA, USA) at room temperature for 15 min, which was followed by adding Ac-peptide-AMC substrates to initiate the reaction in Tris-based assay buffer. Reaction mixtures were incubated at room temperature for 60 min in HDAC1, HDAC2, HDAC3 and HDAC6 assays, and were incubated for 240 min in HDAC8 assay. Then, the stop solution containing trypsin was added. The coupled reaction was incubated for another 90 min at 37 °C. Fluorescent AMC released from substrate was measured in SynergyMx (BioTek, Winooski, VT, US) using filter sets as excitation = 355 nm and emission = 460 nm. IC50 values were calculated by GraphPad Prism software (7.0 version., GraphPad Software, San Diego, CA, USA).

This is an account of results in paper PMC7401273, “Unexpected Enhancement of HDACs Inhibition by MeS Substitution at C-2 Position of Fluoro Largazole” (Marine Drugs, 2020).

A word on the IC50: it is the concentration that inhibits the measured activity by half. largazole thiol [reference compound]: the IC50 was determined as 3.75 ± 0.2 nM.
